{"source": "patent US20240252486A1", "about": "“ALGOSTATIC AGENTS FOR PREVENTING TRANSITION FROM ACUTE TO CHRONIC PAIN” (The Regents of the University of California, priority 2021, published 2024)", "test_system": "mice subjected to chronic constriction injury (CCI) of the sciatic nerve", "experiment": "Chronic constriction injury (CCI) of the sciatic nerve"}
{"smiles": "CC(C)(Sc1ccc(CCN(CCCCC2CCCCC2)C(=O)NC2CCCCC2)cc1)C(=O)O", "note": "[GW7647, reference compound]", "values": [{"measurement": "pain chronification (hyperalgesia)", "setting": "GW7647 10 mg-kg^−1 IP, post-procedural day 2-4, wild-type mice subjected to CCI", "result": "stopped"}]}
{"smiles": "CCS(=O)(=O)c1ccccc1C(=O)N1CCN(c2nc3ccc(F)cc3s2)C[C@@H]1C", "note": "[ARN19702]", "values": [{"measurement": "chronic pain manifestations after CCI (spontaneous pain, hypersensitivity to heat and mechanical stimuli, long-term memory)", "setting": "ARN19702 30 mg-kg^−1 IP once daily for 3 days starting 24 h after surgery, POD 7-14 and POD 26", "result": "prevented the appearance"}, {"measurement": "persistent hypersensitivity elicited by CCI", "setting": "post-injury intrathecal infusion at post-operative day 2 and 4, assessed post-operative day 14", "result": "stopped"}]}
